Laboratory results as given in US10189782B2, “Derivatives of indole for the treatment of cancer, viral infections and lung diseases” (BIOKINESIS, priority 2012, dated 2019).

Protein sequences, listed by entry. Tags and fused reporters are not part of them. Residues count along the entry.
UniProt O95235, 1-519 limits assumed: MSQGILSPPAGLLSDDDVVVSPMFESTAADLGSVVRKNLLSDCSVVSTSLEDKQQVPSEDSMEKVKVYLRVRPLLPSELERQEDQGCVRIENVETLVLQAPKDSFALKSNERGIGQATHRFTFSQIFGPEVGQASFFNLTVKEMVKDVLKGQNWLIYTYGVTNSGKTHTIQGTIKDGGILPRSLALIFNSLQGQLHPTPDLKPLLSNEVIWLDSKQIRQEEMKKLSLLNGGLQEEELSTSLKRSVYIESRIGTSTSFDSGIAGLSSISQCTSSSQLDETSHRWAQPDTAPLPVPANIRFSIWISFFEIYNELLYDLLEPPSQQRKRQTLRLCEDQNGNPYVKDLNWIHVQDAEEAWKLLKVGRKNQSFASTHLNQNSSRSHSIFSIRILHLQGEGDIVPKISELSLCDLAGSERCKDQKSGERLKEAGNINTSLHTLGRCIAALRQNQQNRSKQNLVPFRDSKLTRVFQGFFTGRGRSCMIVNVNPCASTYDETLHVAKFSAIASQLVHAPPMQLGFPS

Columns and labels:
[1] = molecular target: Human recombinant MKlp2 motor domain1-519, His tagged (Homo sapiens, UniProt O95235); experiment: Microtubule stimulated ATPase activity of the MKlp2 motor domain (Kinesin ELIPA Assay Kit); settings: read-out: MKIp2 IC50, Table 6 (prodrugs, formula II)
K562 cells = experiment: Cytotoxicity on human cancer cells (WST-1), K562; settings: read-out: K562 IC50, Table 6 (prodrugs, formula II), WST-1 on D4
Procedure: Evaluation of Cytotoxicity Effects on Human Cancer Cells
The effects of the compounds of the invention on the viability of human cancer cells were studied on various human cancer cell lines of differing tissue origins (A549, NCI-H460: lung cancer; MDA-MB-231: breast cancer; HCT-116, HT-29: colon cancer; MIA-PaCa-2: pancreatic cancer; K562: leukaemia). All cell lines were obtained from ATCC or ECACC. Cells were cultured in the culture media described below, under a 37° C., 5% CO2 humidified atmosphere, according to a standard operating procedure.
On D0, the cells were plated in 90 μl in 96 wells plates at densities ranging from 500 to 5,000 cells per well.
Following addition of the test substance the cells were protected from light. The solvents (DMSO and specific control solvent were added at the maximal concentration: 10 μl/well (3 wells/condition)).
On D4, the Cell Proliferation Reagent WST-1 was added to each well (10 μl/well), according to a standard operating procedure. The cells were then incubated for 30 min to 4 h at 37° C.-5% CO2. After these incubations, the 96-well plates were shaken thoroughly for 1 min with Multiskan® EX apparatus (Thermo Labsystems, France). The absorbence was measured at 450 nm, the reference wavelength being 620 nm. […]

COc1ccncc1/C=C(\C#N)c1cn(C(=O)CN(C)C)c2ccc(Br)cc12
IC50 [1]: 400 nM | IC50 (K562 cells): 330 nM
